From ChEMBL document CHEMBL5724803, “Viability screening in matched tumor and normal assay results for EUbOPEN Chemogenomics Library” (2024)

Test system: Colon organoid
Assay type: functional, Homo sapiens

Row | Compound | Cell Viability Ratio
1 | CC(=O)C1=C(C)N(c2cccc(C(F)(F)F)c2)C(=O)N[C@H]1c1ccc(C#N)nc1 [BAY-677] | 1.109
2 | CC(=O)C1=C(C)N(c2cccc(C(F)(F)F)c2)C(=O)N[C@@H]1c1ccc(C#N)nc1 [BAY-678] | 0.9852
